This note sets out measurements from patent US5427922A (Takeda Chemical Industries, Ltd., priority 1992, dated 1995).

Chains of the proteins cited; added tags and fusions are not shown.
UniProt P30556, whole entry Q187R/F204S/L205C/K232N/K240R/L268Q/C289W/R311K/Y312D/F313I: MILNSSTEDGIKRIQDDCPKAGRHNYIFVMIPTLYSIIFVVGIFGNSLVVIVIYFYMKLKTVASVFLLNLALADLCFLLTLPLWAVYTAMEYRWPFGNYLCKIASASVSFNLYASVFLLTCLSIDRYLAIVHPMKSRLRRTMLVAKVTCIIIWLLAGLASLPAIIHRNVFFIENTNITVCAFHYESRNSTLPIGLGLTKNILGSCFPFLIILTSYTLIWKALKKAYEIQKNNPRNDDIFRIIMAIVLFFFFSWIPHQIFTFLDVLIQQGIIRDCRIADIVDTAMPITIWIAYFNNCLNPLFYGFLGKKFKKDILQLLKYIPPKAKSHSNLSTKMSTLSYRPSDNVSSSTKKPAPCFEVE

The assay addresses Ang II type 1 receptor from human placenta (Homo sapiens, UniProt P30556). Briefly: Radio-labeled Ang II binding activity in animal cells (COS7/pHARp306) expressing full-length Ang II type 1 receptor gene from human placenta. To be noted: 10 μM agonist or antagonist added; 100 pM [125I]-Ang II; room temperature, 60 minutes; control (none) 84,148 cpm.

SMILES strings stand for the structures.

For `CCCCc1nc(Cl)c(CO)n1Cc1ccc(-c2ccccc2-c2nn[nH]n2)cc1` [DuP753], the “Radioactivity (bound [125I]-labeled Ang II)” value is 1,246 cpm.
